Measured values taken from the CheMixHub viscosity set.
± gives the uncertainty stated by the source.

Experiment: xn = mol fraction of the nth substance listed
Settings: 100 kPa

CCC[N+](CCC)(CCC)CCC.F[B-](F)(F)F + CC#N
viscosity [mPa·s]
Settings	x1 = 0.004109	x1 = 0.008148	x1 = 0.01217	x1 = 0.01616	x1 = 0.02022	x1 = 0.02407	x1 = 0.02797	x1 = 0.03172	x1 = 0.03563	x1 = 0.03955
293.15 K	0.418 ± 0.009	0.439 ± 0.009	0.458 ± 0.01	0.483 ± 0.01	0.501 ± 0.011	0.526 ± 0.011	0.545 ± 0.012	0.569 ± 0.012	0.591 ± 0.013	0.617 ± 0.013
298.15 K	0.399 ± 0.009	0.419 ± 0.009	0.438 ± 0.009	0.458 ± 0.01	0.478 ± 0.01	0.498 ± 0.011	0.52 ± 0.011	0.541 ± 0.012	0.563 ± 0.012	0.586 ± 0.012
303.15 K	0.381 ± 0.008	0.398 ± 0.008	0.416 ± 0.009	0.438 ± 0.009	0.454 ± 0.01	0.475 ± 0.01	0.491 ± 0.01	0.512 ± 0.011	0.531 ± 0.011	0.554 ± 0.012
308.15 K	0.365 ± 0.008	0.38 ± 0.008	0.397 ± 0.008	0.419 ± 0.009	0.433 ± 0.009	0.454 ± 0.01	0.467 ± 0.01	0.487 ± 0.01	0.505 ± 0.011	0.526 ± 0.011
313.15 K	0.35 ± 0.007	0.363 ± 0.008	0.38 ± 0.008	0.403 ± 0.009	0.413 ± 0.009	0.433 ± 0.009	0.445 ± 0.009	0.464 ± 0.01	0.481 ± 0.01	0.5 ± 0.011
318.15 K	0.336 ± 0.007	0.348 ± 0.007	0.364 ± 0.008	0.386 ± 0.008	0.395 ± 0.008	0.415 ± 0.009	0.425 ± 0.009	0.443 ± 0.009	0.459 ± 0.01	0.478 ± 0.01
323.15 K	0.323 ± 0.007	0.334 ± 0.007	0.349 ± 0.007	0.37 ± 0.008	0.379 ± 0.008	0.398 ± 0.008	0.407 ± 0.009	0.42 ± 0.009	0.437 ± 0.009	0.456 ± 0.01
